For orientation: IC50 means the concentration that inhibits the measured activity by half.

The chains behind the UniProt entries cited, without tags or fusion partners.
UniProt O75762, whole entry: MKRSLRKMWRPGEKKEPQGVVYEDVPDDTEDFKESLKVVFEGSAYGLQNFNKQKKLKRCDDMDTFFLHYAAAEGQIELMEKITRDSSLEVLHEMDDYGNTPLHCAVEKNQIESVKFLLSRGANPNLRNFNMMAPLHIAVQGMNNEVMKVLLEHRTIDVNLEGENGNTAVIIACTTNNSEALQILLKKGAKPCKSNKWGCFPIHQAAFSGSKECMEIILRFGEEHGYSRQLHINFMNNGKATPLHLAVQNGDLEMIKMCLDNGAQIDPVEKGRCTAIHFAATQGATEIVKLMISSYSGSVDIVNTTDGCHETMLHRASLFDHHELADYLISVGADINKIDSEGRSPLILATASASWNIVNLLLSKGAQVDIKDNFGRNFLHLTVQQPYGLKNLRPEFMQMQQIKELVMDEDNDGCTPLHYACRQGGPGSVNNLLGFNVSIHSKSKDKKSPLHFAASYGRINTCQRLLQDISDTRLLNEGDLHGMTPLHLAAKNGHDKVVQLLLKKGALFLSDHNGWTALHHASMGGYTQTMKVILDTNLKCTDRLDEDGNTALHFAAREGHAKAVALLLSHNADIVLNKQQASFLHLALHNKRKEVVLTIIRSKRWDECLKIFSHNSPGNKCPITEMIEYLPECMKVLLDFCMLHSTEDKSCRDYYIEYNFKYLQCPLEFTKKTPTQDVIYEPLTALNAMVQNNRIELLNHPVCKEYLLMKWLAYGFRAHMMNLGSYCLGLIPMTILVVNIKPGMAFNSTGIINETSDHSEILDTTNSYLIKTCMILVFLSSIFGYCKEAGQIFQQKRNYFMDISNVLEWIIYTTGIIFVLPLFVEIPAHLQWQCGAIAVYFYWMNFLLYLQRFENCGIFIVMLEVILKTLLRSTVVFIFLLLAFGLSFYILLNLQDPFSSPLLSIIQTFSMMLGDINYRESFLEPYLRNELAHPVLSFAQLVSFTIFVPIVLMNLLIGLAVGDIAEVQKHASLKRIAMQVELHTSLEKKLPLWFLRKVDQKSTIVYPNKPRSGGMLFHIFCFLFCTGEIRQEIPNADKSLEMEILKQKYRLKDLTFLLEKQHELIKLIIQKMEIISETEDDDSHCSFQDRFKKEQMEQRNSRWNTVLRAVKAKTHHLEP

In assay [1] the target is T1, Transient receptor potential cation channel subfamily A member 1 (Homo sapiens, UniProt O75762). Briefly: Antagonist activity at TRPA1 channel assessed as inhibition of mustard oil-induced currents. It counts as functional.
Assay [2] deals with T1, Transient receptor potential cation channel subfamily A member 1. Description: Antagonist activity at human TRPA1 channel assessed as inhibition of thymol-induced response. In kind it is functional.

Turning to `CC12CCC(CC1=O)C2(C)C` (configuration not stated) [CAMPHOR], the IC50 was found to be 660 µM in assay [1] and 400 µM in assay [2].

These data come from ChEMBL document CHEMBL1155439, “Transient receptor potential ankyrin 1 (TRPA1) channel as emerging target for novel analgesics and anti-inflammatory agents” (J Med Chem, 2010).
